Test [1] deals with mitochondria extracted from human cultured cells. Kind of test: NADH oxidation / NAD+ reduction by mitochondria under RET conditions (Example 2). As to conditions: hydrogen about 25 μM; 1 mM NAD+, 10 mM succinic acid, 0.2 mM Q10, 25 min at 30° C.; 306 pmol/ml in the absence of hydrogen.
The test system is the same in test [2]. Briefly: NADH concentration under RET conditions with 5 μM NADH added (Example 6). To be noted: hydrogen about 25 μM, 1 mM NAD+, 10 mM succinic acid, 0.2 mM Q10, 25 min at 30° C., 282 pmol/ml in the absence of hydrogen.
In test [3] the test system is complex I. Kind of test: reactive oxygen species from complex I, measured as H2O2, with Strobilurin B (Example 3). As to conditions: presence of hydrogen, Example 2 conditions plus Strobilurin B.
Test [4] deals with complex I. Kind of test: reactive oxygen species from complex I, measured as H2O2, with NADH added and Strobilurin B (Example 7). To be noted: presence of hydrogen, Example 6 conditions plus Strobilurin B.
The test system of test [5] is mitochondria extracted from human cultured cells. Briefly: H2O2 generation with Q1 in place of Q10 (Example 4). To be noted: presence of hydrogen.

Consider 1 substance from patent publication US20210187012A1, “ANTI-COAGULANT AGENT, ANTICOAGULATION DEVICE, BLOOD COAGULATION CURING METHOD, VASCULAR ENDOTHELIAL CELL FUNCTION IMPROVING METHOD, AND METABOLISM IMPROVING METHOD” (H2BANK CO., LTD., priority 2018, published 2021).

Regarding hydrogen, the “NADH concentration (average value per minute)” value in test [1] was 165 pmol/mL; in test [2], 1,118 pmol % ml. The “decrease of H2O2 relative to absence of hydrogen” value in the test on complex I [3] is given as “about one twelfth”. Also, the “reactive oxygen species from complex I measured as H2O2” value in the test on complex I [3] (SOD, 16.4 μM in the absence of hydrogen) turned out to be 1.36 µM; with complex I [4] (SOD, 23 μM in the absence of hydrogen), 3.9 µM. Further, in the test with complex I [4], the “H2O2 relative to the value in the absence of hydrogen” value is reported as “about one fifth”. Besides, the H2O2 in test [5] (Example 2 conditions with Q1 in place of Q10) turned out to be 195 µM. Moreover, the “H2O2 increase relative to absence of hydrogen” value in test [5] (Q1 in place of Q10) is “about 20 times”.
